Sequences of proteins named here, by UniProt entry; tags and fusion partners are left off. A change or cut given only in a name is not applied to a line headed by its entry.
UniProt P31749: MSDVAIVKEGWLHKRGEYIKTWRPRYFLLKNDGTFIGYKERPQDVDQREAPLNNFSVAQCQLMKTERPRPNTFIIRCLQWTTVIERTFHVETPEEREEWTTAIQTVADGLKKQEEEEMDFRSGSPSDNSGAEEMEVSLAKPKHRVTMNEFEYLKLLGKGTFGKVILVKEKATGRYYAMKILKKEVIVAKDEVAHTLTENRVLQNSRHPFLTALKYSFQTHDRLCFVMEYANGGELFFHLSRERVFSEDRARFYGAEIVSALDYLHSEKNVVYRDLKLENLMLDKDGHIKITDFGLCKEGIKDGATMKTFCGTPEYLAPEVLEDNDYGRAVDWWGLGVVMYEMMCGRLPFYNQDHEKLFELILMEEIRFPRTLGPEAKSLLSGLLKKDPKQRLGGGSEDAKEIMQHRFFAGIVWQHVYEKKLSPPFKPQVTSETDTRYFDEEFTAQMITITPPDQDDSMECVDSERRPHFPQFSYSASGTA

One assay concerns the target His-tagged human recombinant kinase full-length Akt1 (Homo sapiens (Human), UniProt P31749). Nature of the assay: Akt1 kinase assay (TR-FRET). As to conditions: 10 μM ATP; read-out: Akt1, median IC50. It counts as biochemical. On the procedure: Biological Assay 1.0: Akt1 Kinase Assay
Akt1 inhibitory activity of compounds of the present invention was quantified employing the Akt1 TR-FRET assay as described in the following paragraphs.
As substrate for the kinase reaction the biotinylated peptide biotin-Ahx-[…] (C-terminus in amide form) was used which can be purchased e.g. from the company Biosynthan GmbH (Berlin-Buch, Germany).
For the assay 50 nl of a 100 fold concentrated solution of the test compound in DMSO was pipetted into a black low volume 384 well microtiter plate (Greiner Bio-One, Frickenhausen, Germany), 2 μl of a solution of Akt1 in assay buffer [50 mM TRIS/HCl pH 7.5, 5 mM MgCl2, 1 mM dithiothreitol, 0.02% (v/v) Triton X-100 (Sigma)] were added and the mixture was incubated for 15 min at 22° C. to allow prebinding of the test compounds to the enzyme before the start of the kinase reaction. […] The concentration of Akt1 in the assay was adjusted depending of the activity of the enzyme lot and was chosen appropriate to have the assay in the linear range, typical enzyme concentrations were in the range of about 0.05 ng/μl (final conc. in the 5 μl assay volume).
The resulting mixture was incubated 1 h at 22° C. to allow the binding of the biotinylated phosphorylated peptide to the streptavidine-XL665 and the antibodies. Subsequently the amount of phosphorylated substrate was evaluated by measurement of the resonance energy transfer from the anti-mouse-IgG-Eu-Chelate to the streptavidine-XL665.
For orientation: Time-resolved FRET reads energy transfer from a long-lived donor to a nearby acceptor.
Take `NC1(c2ccc(-c3nc4cc(-c5cnc[nH]5)ccn4c3-c3ccccc3)cc2)CCC1` [Example 2-115]: the IC50 came to 212 nM.
Same read-out and setting: in the case of `NC1(c2ccc(-c3nc4ccc(-c5cn[nH]c5)cn4c3-c3ccccc3)cc2)CCC1` [Example 2-132] it was 219 nM; in that of `NC1(c2ccc(-c3nc4cc(-c5ccccn5)ccn4c3-c3ccccc3)cc2)CCC1` [Example 2-111], 204 nM.
As to `NC1(c2ccc(-c3nc4ccc(Cl)cn4c3-c3ccccc3)cc2)CCC1` [Example 2-140], the IC50 turned out to be 36 nM.
On to `COc1cc(OC)c2nc(-c3ccc(C4(N)CCC4)cc3)c(-c3ccccc3)n2c1` [Example 2-146], for which the IC50 turned out to be 23 nM.
Still for that read-out and setting: in the case of `Cn1cncc1-c1ccc2nc(-c3ccc(C4(N)CCC4)cc3)c(-c3ccccc3)n2c1` [Example 2-133] it was 2320 nM.
Consider `NC(=O)Nc1ccc2nc(-c3ccc(C4(N)CCC4)cc3)c(-c3ccccc3)n2c1` [Example 2-157], for which the IC50 was 256 nM.

The test system of a further assay is KPL-4 breast cancer cell line. Nature of the assay: Tumor cell proliferation assay (CellTiter-Glo, 72 h), KPL-4. It counts as cell-based. The settings on record: KPL4, 72h drug exposure. Here is the method: Biological Assay 4.0: Tumor Cell Proliferation Assays
Compounds were tested in a cell-based assay that measures the capacity of the compounds to inhibit tumour cell proliferation following a 72h drug exposure. Cell viability is determined using CellTiter-Glow® (CTG, Promega, cat# G7571/2/3). The CellTiter-Glo® Luminescent Cell Viability Assay is a homogeneous method to determine the number of viable cells in culture. Detection is based on using the luciferase reaction to measure the amount of ATP from viable cells. The amount of ATP in cells correlates with cell viability. Within minutes after a loss of membrane integrity, cells lose the ability to synthesize ATP, and endogenous ATPases destroy any remaining ATP; thus the levels of ATP fall precipitously.
For each cell line assayed, cells were plated onto a separate plate for determination of […] at t=0 hour and t=72 hour time points. Following overnight incubation at 37° C., chemiluminescence values for the t=0 samples were determined after adding 10 μl medium and 100 μl CTG solution according to manufacture protocol. Plates for the t=72 hour time points were treated with compounds diluted into growth medium at ten times final concentration added in 10 μL to the cell culture plate. Cells were then incubated for 72 hours at 37° C. Chemiluminescence values for the t=72 hour samples were determined. […]
With `Cn1cc(-c2ccc3nc(-c4ccc(C5(N)CCC5)cc4)c(-c4ccccc4)n3c2)cn1` [Example 2-134], the IC50 was determined as 2100 nM.

By IC50 is commonly meant the concentration needed to halve the response being measured.

For the origin of these results see patent US8975265B2, “Substituted imidazo[1,2-a]pyrimidines and —pyridines” (Bayer Intellectual Property GmbH, priority 2010, dated 2015).
